# Compound activity deposited in PubChem BioAssay by National Center for Advancing Translational Sciences (NCATS).
# Sampled rows, rich in hits. Any-hit rate of the full collection: about 2.3%.
# miR-21 FLuc: raises the signal of a miR-21 reporter | HeLa miR-21 FLuc reporter, luciferase, 48 h | Potency, µM (doses to about 38.3 µM) | 340,000 tested, under 10 active | AID 2288; active = well fitted rising curve with a large enough effect; inconclusive = small, poorly fitted or top-dose-only effect; inactive = no such curve, though single readings can be large or run the other way;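 note: miR-21 action dims this reporter so a rising signal means less miR-21 action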
#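 Compounds were titrated across several concentrations (up to approximately 40 uM) and incubated 48 hours with HeLa miR-21-FLuc reporter cells (miR-21 target sequence downstream of FLuc, endogenous miR-21). Readout was firefly luciferase luminescence after lytic detection reagent.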
# Mito fusion yeast: mitochondrial division inhibition or fusion activation; S. cerevisiae fusion-defective mutant growth rescue, CellTiterGlo 48 h; Potency, µM (series often up to 46.1 µM), actives largely listed as activators; actives 0.23% (n = 320,000); further: nearly all actives have a fitted effect of over 45% in size
#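 Temperature-sensitive fusion-defective S. cerevisiae (e.g. fzo1-1, mgm1-5) were grown with compound in YPEG medium (3% ethanol, 3% glycerol) for 48 hours at 37C. Growth rescue was measured as viability by CellTiterGlo luminescence after 10 minutes at ambient.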
# Nrf2 ARE act: activators of Nrf2 (ARE) signaling; AREc32 ARE-luciferase reporter (MCF7-derived line), luminescence, 24 h; Potency, µM (series often up to 46.1 µM), usual class: activators; actives 0.31% (n = 410,000); AID 624171; further: nearly all actives have a fitted effect of over 65% in size
#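 Luminescent ARE reporter assay in AREc32_Fluc cells: overnight plating at 37 deg C, 24 hr compound incubation, Steady-Glo added, 30 min RT before reading.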
# Nrf2 inh: Nrf2 pathway inhibition; A549 ARE-Fluc reporter, luciferase luminescence, 18-24 h; Potency, µM (top dose mostly 46 µM), hits mostly inhibitors; actives 2.1% (n = 360,000); AID 504444; further: nearly all actives have a fitted effect of over 60% in size
#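 Nrf2 function is reported as luminescence of an ARE-controlled luciferase in A549 cells. Compounds were tested at several concentrations, and a CellTiter-Fluor read on the same wells flagged cytotoxicity.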
# A549 viability: counter-screen for Nrf2 inhibitors: cytotoxicity in A549 cells | A549 ARE-Fluc cells, CellTiter-Fluor viability, 18-24 h | Potency, µM (series often up to 46 µM), usual class: inhibitors | actives 0.16% (n = 390,000) | AID 504648
#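 A549 ARE-Fluc cells in 5% FBS OPTI-MEM, 5000 cells/well, rested 2 h then exposed to compounds in concentration-response for 18-24 h at 37 °C. Viability by CellTiter-Fluor fluorescence (Ex 405/Em 525) after 30 min; luciferase luminescence (BugLite, 15 min, RT) read afterwards.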
# Hits are given with their value; n = inactive; u = inconclusive; x = no result given; [ ] = remark or other dose. Unless noted, the call rests on the fitted dose curve; in most records, active means well fitted curve in the direction sought with a large enough effect; inconclusive means small, poorly fitted or top-dose-only effect, or another doubt; inactive means no such curve, though single readings can be large; an effect the other way counts as inactive or inconclusive.
SMILES,miR-21 FLuc,Mito fusion yeast,Nrf2 ARE act,Nrf2 inh,A549 viability
O=C1CCCN1c1ccc(S(=O)(=O)Oc2ccc(Cl)cc2)cc1[N+](=O)[O-],n,n,n,7.3µM,u
CCCNS(=O)(=O)c1ccc(N2CCCC2=O)c([N+](=O)[O-])c1,n,n,n,n,n
Cc1cc(C)c(C)c(S(=O)(=O)N2CCN(S(=O)(=O)c3ccc4c(c3)OCCO4)CC2)c1C,x,x,x,n,n
CCc1ccc(CNC(=O)c2ccc3nc(SCc4ccc(F)cc4)n(C)c3c2)cc1,u,x,n,u,n
O=C(c1ccc(CSc2nc3ccncc3n2Cc2cccc(F)c2)cc1)N1CCCCC1,n,x,n,23µM,n
O=C(c1ccc(CSc2nc3ccncc3n2Cc2ccc(F)cc2)cc1)N1CCCCCC1,n,x,n,18µM,n
O=C(c1ccc(CSc2nc3ccncc3n2Cc2cccc(F)c2)cc1)N1CCCCCC1,n,x,n,u,n
CCOC(=O)N1CCN(C(=O)c2ccc3nc(SCc4ccc(F)cc4)n(C)c3c2)CC1,n,n,n,16µM,n
O=C(Cn1ncc2c3ccccc3n(Cc3ccc(F)cc3)c2c1=O)NCCCN1CCCCC1,n,x,n,n,n
COc1cccc(NC(=O)c2sc3nc(C)c(C(=O)Nc4ccc(C)cc4C)c(-c4cccs4)c3c2N)c1,n,x,n,n,n
O=c1[nH]c2ccc(S(=O)(=O)N3CCN(S(=O)(=O)c4ccc5c(c4)OCCO5)CC3)cc2[nH]c1=O,x,x,x,n,n
CCOC(=O)c1ccc2c(c1)nc(C1CCN(S(=O)(=O)c3cccs3)CC1)n2CC,n,n,n,26µM,u
O=C(c1ccc([N+](=O)[O-])o1)N1CCN(c2nc3c(F)cc(F)cc3s2)CC1,x,u,u,n,n
Cc1ccc(C)c2sc(N3CCN(C(=O)c4ccc([N+](=O)[O-])o4)CC3)nc12,x,20µM,u,n,n
N#Cc1ccccc1S(=O)(=O)N1CCCC(c2nc3c(nnn3Cc3cccc(Cl)c3)c(=O)[nH]2)C1 (stereo unspecified),n,x,n,n,n
CC(=O)c1ccccc1Oc1cc(NN2CCCCC2)c([N+](=O)[O-])cc1[N+](=O)[O-],n,n,n,26µM,n
Cc1[nH]c2ccccc2c(=O)c1C(=O)/C=C/c1ccccc1,u,n,u,18µM,u
Cc1ccccc1CNc1ncnc2c1ncn2C1OC(CO)C(O)C1O (stereo unspecified),x,n,x,x,x
OC[C@H]1O[C@@H](n2cnc3c(NCc4ccco4)ncnc32)[C@H](O)[C@@H]1O,x,x,u,8.2µM,u
COc1ccc(-c2cc(C)no2)cc1S(=O)(=O)N1CCN(c2ccccn2)CC1,n,n,n,18µM,n
CCOC(=O)c1c(NC(=O)CN2CCCCC2)sc2c1CCN(C(=O)OCC)C2,n,n,n,23µM,u
O=c1[nH]n(Cc2ccccc2)c(=O)c2ccccc12,n,n,5µM,x,n
CC1(c2nnc(-c3ccncc3)o2)CC(c2ccc([N+](=O)[O-])cc2)=NO1 (stereo unspecified),n,n,n,12µM,n
CC1(c2nnc(-c3ccccc3)o2)CC(c2c(Cl)cccc2Cl)=NO1 (stereo unspecified),x,x,n,23µM,n
CC1(c2nnc(-c3ccc(Cl)cc3)o2)CC(c2ccc([N+](=O)[O-])cc2)=NO1 (stereo unspecified),n,n,n,n,n
SMILES,miR-21 FLuc,Mito fusion yeast,Nrf2 ARE act,Nrf2 inh,A549 viability
COc1ccc2nc(N3C(=O)C(O)=C(C(=O)c4ccco4)C3c3ccc(C)o3)sc2c1 (stereo unspecified),x,n,n,u,u
Cc1ccc2nc(N3C(=O)C(O)=C(C(=O)c4ccco4)C3c3cccs3)sc2c1 (stereo unspecified),n,n,u,u,15µM
CCC(=O)N1c2ccc(S(=O)(=O)CCC(=O)N3CCN(c4cc(C)ccc4C)CC3)cc2CC1C (stereo unspecified),n,x,n,u,n
CC(=O)N1c2ccc(S(=O)(=O)N3CCCC(C(=O)Nc4ccc(F)cc4)C3)cc2CC1C (stereo unspecified),n,n,n,18µM,n
O=C(Nc1cccc(F)c1)C1CCN(S(=O)(=O)c2ccc3[nH]c4c(c3c2)CCCCC4)CC1,u,x,n,18µM,n
CCC(=O)N1c2ccc(S(=O)(=O)N3CCN(c4cc(C)ccc4C)CC3)cc2CC1C (stereo unspecified),n,n,n,16µM,n
CC1Cc2cc(S(=O)(=O)N3CCCC(C(=O)N4CCCCC4)C3)ccc2N1C(=O)C1CC1 (stereo unspecified),n,0.32µM,n,n,n
Cc1ccc(NC(=O)Cn2c(=O)n(Cc3ccc4c(c3)OCO4)c(=O)c3oc4ccccc4c32)cc1C,n,x,n,n,n
COc1ccc(C2=Nn3c(nnc3-c3ccccc3OC)SC2)cc1,x,x,x,u,n
CCOc1ccc(CNCc2c(C(=O)O)n(Cc3ccccc3F)c3cc(OC)ccc23)cc1,n,x,n,n,u
CN(C)c1cccc(S(=O)(=O)N2CCN(S(=O)(=O)c3ccc4c(c3)OCCO4)CC2)c1,x,x,x,n,n
Cc1ccc(NC(=O)C2CCN(S(=O)(=O)c3ccc4c(c3)CC(C)N4C(=O)C3CCC3)CC2)nc1 (stereo unspecified),n,n,n,u,n
CC(=O)N1c2ccc(S(=O)(=O)N3CCC(C(=O)Nc4ccc(C)cn4)CC3)cc2CC1C (stereo unspecified),n,n,n,15µM,n
CCc1ccc(NC(=O)C2CCCN(S(=O)(=O)c3ccc4c(c3)CC(C)N4C(C)=O)C2)cc1 (stereo unspecified),n,n,n,u,n
CCc1ccc(NC(=O)C2CCN(S(=O)(=O)c3ccc4c(c3)CC(C)N4C(C)=O)CC2)cc1 (stereo unspecified),u,n,n,16µM,n
CC(=O)N1c2ccc(S(=O)(=O)N3CCC(C(=O)Nc4cccc(F)c4)CC3)cc2CC1C (stereo unspecified),n,n,n,16µM,n
CC1Cc2cc(S(=O)(=O)CCC(=O)Nc3ccc(Cl)cc3F)ccc2N1C(=O)C1CC1 (stereo unspecified),n,x,n,13µM,n
COc1ccc(-c2nnc(SCC(=O)NCCc3ccc(OC)c(OC)c3)nc2-c2ccc(OC)cc2)cc1,n,x,n,n,n
CC1Cc2cc(S(=O)(=O)N3CCC(C(=O)Nc4ccccn4)CC3)ccc2N1C(=O)C1CCC1 (stereo unspecified),n,n,n,15µM,n
CC(=O)N1c2ccc(S(=O)(=O)N3CCC(C(=O)Nc4cccc(C)c4)CC3)cc2CC1C (stereo unspecified),n,n,n,u,n
CC(=O)N1c2c(cc(Br)cc2S(=O)(=O)N2CCN(c3cc(C)ccc3C)CC2)CC1C (stereo unspecified),n,x,n,n[9.27 µM],n
